Reference: patent US7498404B2, “Compositions, methods and uses for a novel family of peptides” (priority 2004, dated 2009)

Assays:
aminopeptidase M = conditions: purified BT1583 (Fraction 33)
[1] = mouse, in vivo
[2] = in vivo

Me2Bmt-L-dO-I-V-V-dK-V-dL-K-dY-L-Vol [BT1583]
degradation by aminopeptidase M (aminopeptidase M): resistant | digestion in the GI track [1]: not digested | absorption by the chicken GI track [2]: no or very little absorption | digestion in the GI track [2]: not digested

Where two headings read alike, the source gives them in different places.
